Molecular target: Myogenin (full length, mouse) (mouse) (UniProt P12979)

MBP-I-mfc (from UniProt P0AEX9)
Myogenin DNA binding (gel shift, B1/B2 E box probe) (fold molar excess): 48

Reference: patent US5885797
